Test results as given in patent US9493663B2, “Photopolymerizable inkjet ink, ink cartridge, and printer” (RICOH COMPANY, LTD., priority 2011, dated 2016).

Assay: skin sensitization test (LLNA, Local Lymph Node Assay, OECD test guideline 429), Stimulation Index
Assay type: in vivo
Details: SI less than 3 judged negative
Text: The present inventor conducted extensive studies and previously found some materials safe in skin sensitization. […]
As described in literatures (for example, “Functional Material” (Kino Zairyou) 2005, September, Vol. 25, No. 9, p. 55), the compound having a Stimulation Index (SI value) of less than 3, where the Stimulation Index indicates the extent of skin sensitization, is judged as being negative for skin sensitization. Also, the compounds evaluated as “negative for skin sensitization” or “no skin sensitization” in their MSDS (Material Safety Data Sheet) and/or literatures (for example, van der Walle H B. et al., Contact Dermatitis, 1982, 8(4), 223-235) each have the above SI value which is less than 3, and therefore they are encompassed by the present invention. The lower SI value means lower skin sensitization. Thus, in the present invention, a monomer or an oligomer having lower SI value is preferably used. The SI value of the monomer or the oligomer used is preferably 2 or lower, more preferably 1.6 or lower.
The value in parentheses after each of A1 to A23 is “SI value” and the description “negative” or “none” after each of A1 to A23 means that the compound is evaluated as “negative for skin sensitization” or “no skin sensitization” in the MSDS (Material Safety Data Sheet) or literatures (for example, van der Walle H B. et al., Contact Dermatitis, 1982, 8(4), 223-235). The description “negative” or “none” is equivalent to the SI value of less than 3.

Substance | SI value (Stimulation Index)
Glycerin dimethacrylate [Example A22] | 1.2
Ethylene oxide-modified trimethylol propane trimethacrylate [Example A20] | 1.0
Ethylene oxide-modified bisphenol A diacrylate [Example A10] | 1.2
Ethylene oxide-modified phenol acrylate [Example A18] | 0.7
